The labels stand for the following.
B1: Tyrosine-protein kinase ABL1, residues 64 to 120; numbered along this chain, P00519 (parent)
chain: NLFVALYDFVASGDNTLSITKGEKLRVLGYNHNGEWCEAQTKNGQGWVPSNYITPVN

± gives the uncertainty stated by the source.

In the series the parent is B1. In words: abundance fitness (aPCA) (normalised: wild type 0, dead -1); higher = more abundant; growth selection in yeast, the domain comes from the species named. The following applies: Homo sapiens.
Take NLFAALYDFVASGDNTLSITKGEKLRVLGYNHNGEWCEAQTKNGQGWVPSNYITPVN [V4A]: the abundance fitness was -0.178 ± 0.1.

With NLFKALYDFVASGDNTLSITKGEKLRVLGYNHNGEWCEAQTKNGQGWVPSNYITPVN [V4K], the abundance fitness was 0.048 ± 0.1.

For NLFSALYDFVASGDNTLSITKGEKLRVLGYNHNGEWCEAQTKNGQGWVPSNYITPVN [V4S], the abundance fitness was 0.011 ± 0.097.

In the case of NLFQALYDFVASGDNTLSITKGEKLRVLGYNHNGEWCEAQTKNGQGWVPSNYITPVN [V4Q], the abundance fitness is -0.111 ± 0.14.

Take NLFYALYDFVASGDNTLSITKGEKLRVLGYNHNGEWCEAQTKNGQGWVPSNYITPVN [V4Y]: the abundance fitness was -0.239 ± 0.18.

As to NLFHALYDFVASGDNTLSITKGEKLRVLGYNHNGEWCEAQTKNGQGWVPSNYITPVN [V4H], the abundance fitness is -0.18 ± 0.2.

On to NLFGALYDFVASGDNTLSITKGEKLRVLGYNHNGEWCEAQTKNGQGWVPSNYITPVN [V4G], for which the abundance fitness was -0.663 ± 0.11.

In the case of NLFCALYDFVASGDNTLSITKGEKLRVLGYNHNGEWCEAQTKNGQGWVPSNYITPVN [V4C], the abundance fitness is -0.271 ± 0.15.

Consider NLFDALYDFVASGDNTLSITKGEKLRVLGYNHNGEWCEAQTKNGQGWVPSNYITPVN [V4D], for which the abundance fitness was -0.407 ± 0.22.

Consider NLFWALYDFVASGDNTLSITKGEKLRVLGYNHNGEWCEAQTKNGQGWVPSNYITPVN [V4W], for which the abundance fitness was -0.311 ± 0.097.

Regarding NLFLALYDFVASGDNTLSITKGEKLRVLGYNHNGEWCEAQTKNGQGWVPSNYITPVN [V4L], the abundance fitness was -0.185 ± 0.087.

As to NLFPALYDFVASGDNTLSITKGEKLRVLGYNHNGEWCEAQTKNGQGWVPSNYITPVN [V4P], the abundance fitness was -0.99 ± 0.14.

Regarding NLFIALYDFVASGDNTLSITKGEKLRVLGYNHNGEWCEAQTKNGQGWVPSNYITPVN [V4I], the abundance fitness came out at 0.105 ± 0.081.

Take NLFNALYDFVASGDNTLSITKGEKLRVLGYNHNGEWCEAQTKNGQGWVPSNYITPVN [V4N]: the abundance fitness was -0.344 ± 0.22.

Regarding NLFEALYDFVASGDNTLSITKGEKLRVLGYNHNGEWCEAQTKNGQGWVPSNYITPVN [V4E], the abundance fitness was -0.034 ± 0.093.

NLFRALYDFVASGDNTLSITKGEKLRVLGYNHNGEWCEAQTKNGQGWVPSNYITPVN [V4R]: the abundance fitness is -0.108 ± 0.072.

Take NLFFALYDFVASGDNTLSITKGEKLRVLGYNHNGEWCEAQTKNGQGWVPSNYITPVN [V4F]: the abundance fitness is -0.283 ± 0.16.

Regarding NLFVALCDFVASGDNTLSITKGEKLRVLGYNHNGEWCEAQTKNGQGWVPSNYITPVN [Y7C], the abundance fitness was -0.045 ± 0.12.

As for NLFVALDDFVASGDNTLSITKGEKLRVLGYNHNGEWCEAQTKNGQGWVPSNYITPVN [Y7D], the abundance fitness was -0.109 ± 0.25.

Consider NLFVALADFVASGDNTLSITKGEKLRVLGYNHNGEWCEAQTKNGQGWVPSNYITPVN [Y7A], for which the abundance fitness is -0.039 ± 0.1.

For the variant NLFVALEDFVASGDNTLSITKGEKLRVLGYNHNGEWCEAQTKNGQGWVPSNYITPVN [Y7E], the abundance fitness turned out to be 0.159 ± 0.096.

Turning to NLGVALYDFVASGDNTLSITKGEKLRVLGYNHNGEWCEAQTKNGQGWVPSNYITPVN [F3G], the abundance fitness is -0.341 ± 0.097.

On to NLSVALYDFVASGDNTLSITKGEKLRVLGYNHNGEWCEAQTKNGQGWVPSNYITPVN [F3S], for which the abundance fitness is -0.299 ± 0.082.

For the variant NLYVALYDFVASGDNTLSITKGEKLRVLGYNHNGEWCEAQTKNGQGWVPSNYITPVN [F3Y], the abundance fitness is -0.492 ± 0.24.

With NLMVALYDFVASGDNTLSITKGEKLRVLGYNHNGEWCEAQTKNGQGWVPSNYITPVN [F3M], the abundance fitness is -0.342 ± 0.071.

With NLTVALYDFVASGDNTLSITKGEKLRVLGYNHNGEWCEAQTKNGQGWVPSNYITPVN [F3T], the abundance fitness is -0.404 ± 0.085.

NLHVALYDFVASGDNTLSITKGEKLRVLGYNHNGEWCEAQTKNGQGWVPSNYITPVN [F3H]: the abundance fitness is -0.289 ± 0.06.

Turning to NLVVALYDFVASGDNTLSITKGEKLRVLGYNHNGEWCEAQTKNGQGWVPSNYITPVN [F3V], the abundance fitness is -0.206 ± 0.07.

On to NLNVALYDFVASGDNTLSITKGEKLRVLGYNHNGEWCEAQTKNGQGWVPSNYITPVN [F3N], for which the abundance fitness is -0.286 ± 0.16.

On to NLPVALYDFVASGDNTLSITKGEKLRVLGYNHNGEWCEAQTKNGQGWVPSNYITPVN [F3P], for which the abundance fitness was -1.14 ± 0.14.

For NLLVALYDFVASGDNTLSITKGEKLRVLGYNHNGEWCEAQTKNGQGWVPSNYITPVN [F3L], the abundance fitness is -0.787 ± 0.11.

NLWVALYDFVASGDNTLSITKGEKLRVLGYNHNGEWCEAQTKNGQGWVPSNYITPVN [F3W]: the abundance fitness is -0.191 ± 0.085.

Take NLRVALYDFVASGDNTLSITKGEKLRVLGYNHNGEWCEAQTKNGQGWVPSNYITPVN [F3R]: the abundance fitness was -0.287 ± 0.047.

On to NLAVALYDFVASGDNTLSITKGEKLRVLGYNHNGEWCEAQTKNGQGWVPSNYITPVN [F3A], for which the abundance fitness was -0.296 ± 0.069.

Take NLKVALYDFVASGDNTLSITKGEKLRVLGYNHNGEWCEAQTKNGQGWVPSNYITPVN [F3K]: the abundance fitness was -0.224 ± 0.12.

As for NLFVMLYDFVASGDNTLSITKGEKLRVLGYNHNGEWCEAQTKNGQGWVPSNYITPVN [A5M], the abundance fitness turned out to be 0.013 ± 0.091.

For NLFVGLYDFVASGDNTLSITKGEKLRVLGYNHNGEWCEAQTKNGQGWVPSNYITPVN [A5G], the abundance fitness was -0.27 ± 0.09.

On to NLFVHLYDFVASGDNTLSITKGEKLRVLGYNHNGEWCEAQTKNGQGWVPSNYITPVN [A5H], for which the abundance fitness was -1.1 ± 0.15.

Turning to NLFVVLYDFVASGDNTLSITKGEKLRVLGYNHNGEWCEAQTKNGQGWVPSNYITPVN [A5V], the abundance fitness is -0.212 ± 0.091.

In the case of NLFVWLYDFVASGDNTLSITKGEKLRVLGYNHNGEWCEAQTKNGQGWVPSNYITPVN [A5W], the abundance fitness is -0.717 ± 0.28.

For the variant NLFVSLYDFVASGDNTLSITKGEKLRVLGYNHNGEWCEAQTKNGQGWVPSNYITPVN [A5S], the abundance fitness was 0.028 ± 0.076.

For NLFVCLYDFVASGDNTLSITKGEKLRVLGYNHNGEWCEAQTKNGQGWVPSNYITPVN [A5C], the abundance fitness is 0.021 ± 0.079.

On to NLFVLLYDFVASGDNTLSITKGEKLRVLGYNHNGEWCEAQTKNGQGWVPSNYITPVN [A5L], for which the abundance fitness is -0.917 ± 0.21.

NLFVILYDFVASGDNTLSITKGEKLRVLGYNHNGEWCEAQTKNGQGWVPSNYITPVN [A5I]: the abundance fitness is -0.812 ± 0.43.

Turning to NLFVPLYDFVASGDNTLSITKGEKLRVLGYNHNGEWCEAQTKNGQGWVPSNYITPVN [A5P], the abundance fitness is 0.295 ± 0.18.

Regarding NLFVELYDFVASGDNTLSITKGEKLRVLGYNHNGEWCEAQTKNGQGWVPSNYITPVN [A5E], the abundance fitness was -1.07 ± 0.21.

For the origin of these results see the Human Domainome abundance scans (Beltran et al. 2025).
